B1: Glycogen synthase kinase-3 beta (Homo sapiens), P49841 (parent)
chain: MSGRPRTTSFAESCKPVQQPSAFGSMKVSRDKDGSKVTTVVATPGQGPDRPQEVSYTDTKVIGNGSFGVVYQAKLCDSGELVAIKKVLQDKRFKNRELQIMRKLDHCNIVRLRYFFYSSGEKKDEVYLNLVLDYVPETVYRVARHYSRAKQTLPVIYVKLYMYQLFRSLAYIHSFGICHRDIKPQNLLLDPDTAVLKLCDFGSAKQLVRGEPNVSYICSRYYRAPELIFGATDYTSSIDVWSAGCVLAELLLGQPIFPGDSGVDQLVEIIKVLGTPTREQIREMNPNYTEFKFPQIKAHPWTKVFRPRTPPEAIALCSRLLEYTPTARLTPLEACAHSFFDELRDPNVKLPNGRDTPALFNFTTQELSSNPPLATILIPPHARIQAAASTPTNATAASDANTGDRGQTNNAASASASNST

The test covers variants of B1. The settings on record: with tsc2_rat Tsc2, P49816.
For the variant S9A, the “effect of a mutation on the interaction” value is “increasing interaction”.

The values are drawn from IntAct's records for PubMed 16959574.
